Results: patent US10550168B2, “Composition for treating diabetes or diabesity comprising oxyntomodulin analog” (HANMI PHARM. CO., LTD., priority 2012, dated 2020)

The chains behind the UniProt entries cited, without tags or fusion partners. Residues count along the entry.
UniProt P43220, 24-463: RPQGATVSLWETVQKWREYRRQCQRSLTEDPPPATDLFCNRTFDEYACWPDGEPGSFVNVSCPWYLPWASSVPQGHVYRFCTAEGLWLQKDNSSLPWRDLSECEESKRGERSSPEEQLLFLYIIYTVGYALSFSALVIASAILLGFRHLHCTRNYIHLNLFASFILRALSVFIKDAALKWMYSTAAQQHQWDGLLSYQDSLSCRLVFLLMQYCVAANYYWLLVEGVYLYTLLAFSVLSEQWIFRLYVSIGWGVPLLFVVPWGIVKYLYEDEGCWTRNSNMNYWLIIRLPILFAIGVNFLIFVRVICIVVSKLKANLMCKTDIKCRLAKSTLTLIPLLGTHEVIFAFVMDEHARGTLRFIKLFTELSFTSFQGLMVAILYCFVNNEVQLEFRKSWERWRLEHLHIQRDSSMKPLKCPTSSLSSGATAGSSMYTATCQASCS
UniProt P47871, 26-477: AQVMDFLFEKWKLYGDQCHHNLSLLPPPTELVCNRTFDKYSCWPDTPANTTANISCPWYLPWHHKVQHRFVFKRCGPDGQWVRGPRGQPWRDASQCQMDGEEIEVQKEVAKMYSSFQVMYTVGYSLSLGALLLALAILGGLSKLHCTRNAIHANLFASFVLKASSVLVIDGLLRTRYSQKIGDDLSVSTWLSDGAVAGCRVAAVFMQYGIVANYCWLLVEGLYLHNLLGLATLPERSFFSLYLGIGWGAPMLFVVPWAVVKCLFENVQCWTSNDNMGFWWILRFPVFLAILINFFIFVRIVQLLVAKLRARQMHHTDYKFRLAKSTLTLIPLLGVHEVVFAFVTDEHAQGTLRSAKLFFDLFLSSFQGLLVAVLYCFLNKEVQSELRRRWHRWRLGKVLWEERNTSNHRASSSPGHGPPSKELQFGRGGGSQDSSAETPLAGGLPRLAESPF

Assays:
human GLP-1 receptor = target: T1, human GLP-1 receptor (Homo sapiens, UniProt P43220); assay: cAMP response in CHO cells expressing human GLP-1 receptor (CHO/GLP-1R); format: cell-based
T1 construct: Using a portion corresponding to the ORF (open reading frame) of cDNA; host or cells: CHO DG44
Procedure: The PCR product was cloned into the known animal cell expression vector x0GC/dhfr, thereby constructing the recombinant vector x0GC/GLP-1R.
(§1) The recombinant vector x0GC/GLP-1R was introduced into a CHO DG44 cell line, cultured in DMEM/F12 (10% FBS) medium, using lipofectamine (Invitrogene, USA), to obtain a transformant. The transformant was incubated in a selective medium containing 1 mg/mL G418 and 10 nM methotraxate, and monoclonal cell lines were selected therefrom.
(§2) The cultured cells were washed with KRB buffer, suspended in 40 ml of 1 mM IBMX-containing KRB buffer, and then allowed to stand at room temperature for 5 minutes. […] Then, 20 ml of cell lysis buffer was added to lyse the cells, and the concentration of cAMP in each of the cell lysates was measured using a cAMP assay kit (Molecular Device, USA).

human glucagon receptor = target: T2, human glucagon receptor (Homo sapiens, UniProt P47871); assay: cAMP response in CHO cells expressing human glucagon receptor (CHO/GCGR); format: cell-based
T2 construct: Using a portion corresponding to the ORF (open reading frame) of cDNA; host or cells: CHO DG44
Procedure: The PCR product was cloned into the known animal cell expression vector x0GC/dhfr, thereby constructing the recombinant vector x0GC/GCGR.
as §1, with “x0GC/GCGR” for “x0GC/GLP-1R”
as §2

Compound | EC50 (human GLP-1 receptor) | EC50 (human glucagon receptor)
CSCC[C@H](NC(=O)[C@H](CCC(N)=O)NC(=O)[C@H](CCCCN)NC(=O)[C@H](CO)NC(=O)[C@H](CC(C)C)NC(=O)[C@H](CC(=O)O)NC(=O)[C@H](CO)NC(=O)[C@@H](NC(=O)[C@H](Cc1ccccc1)NC(=O)[C@@H](NC(=O)CNC(=O)[C@H](CCC(=O)O)NC(=O)CNC(=O)[C@H](Cc1c[nH]cn1)NC(=O)CNC(=O)CNC(=O)CNC(=O)[C@H](CC(=O)O)NC(=O)[C@H](CC(C)C)NC(=O)[C@H](Cc1ccc(O)cc1)NC(=O)[C@H](CCCNC(=N)N)NC(=O)[C@H](CO)NC(=O)[C@H](Cc1ccc(O)cc1)NC(=O)[C@H](CC(=O)O)NC(=O)[C@H](CO)NC(=O)[C@@H](NC(=O)[C@H](Cc1ccccc1)NC(=O)[C@@H](NC(=O)CNC(=O)[C@H](CCC(N)=O)NC(=O)[C@H](CO)NC(=O)Cc1c[nH]cn1)[C@@H](C)O)[C@@H](C)O)[C@@H](C)O)[C@@H](C)O)C(=O)N[C@@H](CCC(=O)O)C(=O)N[C@@H](CCC(=O)O)C(=O)N[C@@H](CCC(=O)O)C(=O)N[C@@H](C)C(=O)N[C@H](C(=O)N[C@@H](CCCCN)C(=O)O)C(C)C [SEQ ID NO: 12] | > 1 µM | > 1 µM
CC[C@H](C)[C@H](NC(=O)[C@H](Cc1ccccc1)NC(=O)[C@H](CC(C)C)NC(=O)C(C)(CCC(=O)O)NC(=O)[C@@H](NC(=O)[C@H](C)NC(=O)[C@H](CCC(=O)O)NC(=O)C(C)(CCC(=O)O)NC(=O)[C@H](CC(=O)O)NC(=O)[C@H](CC(C)C)NC(=O)[C@H](Cc1ccc(O)cc1)NC(=O)[C@H](CCCNC(=N)N)NC(=O)[C@H](CO)NC(=O)[C@H](Cc1ccc(O)cc1)NC(=O)[C@H](CC(=O)O)NC(=O)[C@H](CO)NC(=O)[C@@H](NC(=O)[C@H](Cc1ccccc1)NC(=O)[C@@H](NC(=O)CNC(=O)[C@H](CCC(N)=O)NC(=O)[C@H](CO)NC(=O)Cc1c[nH]cn1)[C@@H](C)O)[C@@H](C)O)C(C)C)C(=O)N[C@@H](CCC(=O)O)C(=O)N[C@@H](Cc1c[nH]c2ccccc12)C(=O)N[C@@H](CC(C)C)C(=O)N[C@@H](CCSC)C(=O)N[C@@H](CC(N)=O)C(=O)N[C@H](C(=O)N[C@@H](CCCCN)C(=O)O)[C@@H](C)O (stereo partly shown) [SEQ ID NO: 13, CA-SQGTFTSDYSRYLDXEAVXLFIEWLMNTK] | > 1 µM | > 1 µM
